# Melting point values, as collected for the OPERA models

Source: data files of OPERA 2.9 (Mansouri et al.), github.com/kmansouri/OPERA.

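The OPERA project collected these measurements from public sources as training and test data for property models. The files give a single number for a compound and property, which may rest on several reports. Method and conditions are not stated for these values. A value may pool stereoisomers or salt forms, and the file does not say which form was measured. Some entries may be limits or estimates that an upstream database listed as plain numbers.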

Melting points are in °C.

CC(=O)c1c(C)oc(N)c1C#N [4-acetyl-2-amino-5-methyl-3-furonitrile] is reported with MP 242 °C.
COC(=O)c1ccc(C)c(NC(=O)CCl)c1 [Methyl 3-(2-chloroacetamido)-4-methylbenzoate] is reported with MP 136 °C.
CN(c1ccc(O)cc1)S(C)(=O)=O [Methanesulfonamide, N-(4-hydroxyphenyl)-N-methyl- (9CI)] is reported with MP 130 °C.
Cc1cc(C(C)(C)C)cc(C)c1S(=O)(=O)Cl [4-tert-butyl-2,6-dimethylbenzenesulfonyl chloride] is reported with MP 114 °C.
Cl.N=C(N)C(F)(F)C(F)(F)C(F)(F)F is reported with MP 128.8 °C.
O=C(C(=O)c1ccc(Cl)cc1)c1ccccc1 [(p-Chlorophenyl)phenylethanedione] is reported with MP 66.5 °C.
COCCCn1c(=S)[nH]c2ccccc2c1=O is reported with MP 181 °C.
CCCCCCCCCCCCCCCCCC[N+](C)(C)CCC[Si](OC)(OC)OC.[Cl-] is reported with MP -14.4 °C.
Cc1c(C(=O)CBr)oc2ccccc12 [2-Bromo-1-(3-methyl-1-benzofuran-2-yl)ethan-1-one] is reported with MP 111 °C.
CC(=O)CC(=O)c1ccc(Br)cc1 [1-(4-bromophenyl)butane-1,3-dione] is reported with MP 93 °C.
O=C(CCl)NCCC(c1ccccc1)c1ccccc1 [2-chloro-N-(3,3-diphenylpropyl)acetamide] is reported with MP 106 °C.
Cn1ccnc1Sc1ccc(N)cc1 [4-[(1-methyl-1H-imidazol-2-yl)thio]aniline] is reported with MP 118 °C.
NC1CCN(C(=O)C2CCCCC2)CC1 [(4-Aminopiperidin-1-yl)(cyclohexyl)methanone] is reported with MP 79 °C.
CCCCC(CC)C(=O)[O-].CCCCC(CC)C(=O)[O-].[Mg+2] (stereo unspecified) [Hexanoic acid, 2-ethyl-, magnesium salt (2:1)] is reported with MP 101.5 °C.
COc1ccc2c(c1)OCC(C(=O)O)=C2 [7-methoxy-2H-chromene-3-carboxylic Acid] is reported with MP 202 °C.
COc1ccc(N2CC(C(=O)O)CC2=O)cc1 (stereo unspecified) [1-(4-Methoxyphenyl)-5-oxopyrrolidine-3-carboxylic acid] is reported with MP 172 °C.
Cc1n[nH]c(C)c1S(=O)(=O)Cl [3,5-Dimethyl-1H-pyrazole-4-sulfonyl chloride] is reported with MP 62.5 °C.
O=C1NC(=O)N(C2CC2)C1=O [1-cyclopropylimidazolidine-2,4,5-trione] is reported with MP 116 °C.
O=C(O)c1cncs1 [Thiazole-5-carboxylic acid] is reported with MP 170 °C.
NC(=O)NCC(=O)O [Glycine, N-(aminocarbonyl)-] is reported with MP 175 °C.
O=C(CCl)Nc1ccc(OCc2ccccc2)cc1 [N-(4-Benzyloxy-phenyl)-2-chloro-acetamide] is reported with MP 119 °C.
COc1ccc(C(=O)NCCCC(=O)O)cc1 [N-anisoyl-GABA] is reported with MP 123 °C.
COc1ccc(C(N)=NO)cc1OC [3,4-Dimethoxybenzamidoxime] is reported with MP 165 °C.
CC(C)(C)N(NC(=O)c1ccccc1)C(=O)c1cccc(C(F)(F)F)c1 [N'-Benzoyl-N-tert-butyl-3-(trifluoromethyl)benzohydrazide] is reported with MP 204 °C.
Cc1cc(/N=N/c2c(S(=O)(=O)[O-])cc3cc(Nc4ccccc4)ccc3c2[O-])c([O-])cc1/N=N/c1cc(S(=O)(=O)[O-])c2cccc(S(=O)(=O)[O-])c2c1.[Cu+2].[Na+].[Na+].[Na+] [C.I. Direct Blue 273] is reported with MP 269 °C.
COc1c(OC)c(OC(C)=O)c2cc(Br)ccc2c1OC(C)=O [6-Bromo-2,3-dimethoxy-1,4-naphthalenediyl diacetate] is reported with MP 102 °C.
CN(C1CCCCC1)S(=O)(=O)c1ccccc1/N=N/c1c(N)ccc2cc(S(=O)(=O)[O-])cc(O)c12.[Na+] is reported with MP 298 °C.
N[C@@H](CCC(=O)NNc1ccc(CO)cc1)C(=O)O [Agaritine] is reported with MP 206.1 °C.
Cn1c(-c2ccccc2)c(C(=O)CC#N)c2ccccc21 [3-(1-Methyl-2-phenyl-1H-indol-3-yl)-3-oxopropanenitrile] is reported with MP 156 °C.
CSCCC(NC(=O)COc1ccccc1)C(=O)O (stereo unspecified) [N-(Phenoxyacetyl)methionine] is reported with MP 126 °C.
O=C(O)c1ccc2c(c1)C(=O)N(c1ccc(F)cc1)C2=O [2-(4-fluorophenyl)-1,3-dioxoisoindoline-5-carboxylic acid] is reported with MP 296 °C.
N=c1[nH]c2c(C(F)(F)F)cccc2s1 [2-Benzothiazolamine, 4-(trifluoromethyl)-] is reported with MP 49 °C.
O=[N+]([O-])c1ccc(S(=O)(=O)Cl)c(Cl)c1 [2-Chloro-4-nitrobenzene-1-sulfonyl chloride] is reported with MP 76 °C.
O=C(O)c1cnsn1 [1,2,5-thiadiazole-3-carboxylic acid] is reported with MP 168 °C.
COc1ccc(C(=O)NCC(=O)O)cc1 [4-Methyoxybenzoyl-N-glycine] is reported with MP 166 °C.
O=C(O)CCn1cnc2ccccc21 [3-(1H-Benzimidazol-1-yl)propanoic acid] is reported with MP 107 °C.
CC1C(=O)NC(=O)N1c1ccccc1 (stereo unspecified) [5-methyl-1-phenylimidazolidine-2,4-dione] is reported with MP 148 °C.
Nc1cccc(-c2nc3ccccc3s2)c1 [3-Benzothiazol-2-yl-phenylamine] is reported with MP 139 °C.
CCCCCCOc1ccc(C(=O)O)cc1OC [4-Hexyloxy-3-methoxy-benzoic acid] is reported with MP 123 °C.
O=C(CCl)c1c[nH]c2ccccc12 [3-Chloroacetylindole] is reported with MP 184 °C.
Cc1ccc(S(=O)(=O)N(C)c2ccc(C(=O)O)cc2)cc1 [4-{methyl[(4-methylphenyl)sulfonyl]amino}benzoic acid] is reported with MP 189 °C.

Extract of 3 entries:

For Cc1cc(C(C)(C)C)cc(C)c1S(=O)(=O)Cl [4-tert-butyl-2,6-dimethylbenzenesulfonyl chloride] the data give MP 114 °C.
For O=C(O)c1cnsn1 [1,2,5-thiadiazole-3-carboxylic acid] the data give MP 168 °C.
For COc1ccc(C(N)=NO)cc1OC [3,4-Dimethoxybenzamidoxime] the data give MP 165 °C.